Each structure is given as a SMILES string. pEC50: −log10 of the molar value.

A short description of this experiment: Inhibition of Bcr-Abl in mouse BA/F3 cells.
The compound `FC(F)(F)Oc1ccc(Nc2cc(-c3cnn(Cc4cccnc4)c3)ncn2)cc1` [6-(1-(pyridin-3-ylmethyl)-1H-pyrazol-4-yl)-N-(4-(trifluoromethoxy)phenyl)pyrimidin-4-amine] gave a pEC50 of 6.40.

`OCc1cc2c(Nc3ccc(OC(F)(F)F)cc3)ncnc2s1` [(4-(4-(trifluoromethoxy)phenylamino)thieno[2,3-d]pyrimidin-6-yl)methanol] had a pEC50 of 6.48.

Consider `COc1ccc(Cn2ccc3c(Nc4ccc(OC(F)(F)F)cc4)ncnc32)cc1` [7-(4-methoxybenzyl)-N-(4-(trifluoromethoxy)phenyl)-7H-pyrrolo[2,3-d]pyrimidin-4-amine], for which the pEC50 was 5.01.

`O=C(c1cc2c(Nc3ccc(OC(F)(F)F)cc3)ncnc2s1)N1CCN(N2CCCC2)CC1` [(4-(pyrrolidin-1-yl)piperazin-1-yl)(4-(4-(trifluoromethoxy)phenylamino)thieno[2,3-d]pyrimidin-6-yl)methanone] gave a pEC50 of 5.87. For `O=C(c1cc2c(Nc3ccc(OC(F)(F)F)cc3)ncnc2s1)N1CCNCC1` [piperazin-1-yl(4-(4-(trifluoromethoxy)phenylamino)thieno[2,3-d]pyrimidin-6-yl)methanone], the pEC50 is 6.39.

One may read the pEC50 as the negative decadic logarithm of the EC50, by convention in mol/L.
